Experiments:
Type in all cases: cell-based
[1] = tested on: PANC-1; assay: MTT cytotoxicity test, PANC-1; details: 24 h
[2] = tested on: ACHN; assay: MTT cytotoxicity test, ACHN; details: 24 h
[3] = tested on: AU565; assay: MTT cytotoxicity test, AU565; details: AU565, 1.25E+06 ng/ml NPs (pure drug equimolar), 24 h
Experimental: (§1) The subject of the study was to determine the cytotoxicity of a combination of anthracyclines encapsulated with a polysaccharide EPI, DAU, DOX, IDA on cell lines. Toxicity was assessed using a quantitative method based on the colourimetric technique (MTT) [see literature item 203]. In this test, […] present in the cells converts the soluble tetrazolium salt (3-4,5-dimethylthiazol-2-yl)-2,5-diphenyltetrazolium bromide) into a reduced form. The reaction yields water-insoluble purple crystalline formazan. The number of crystals formed depends on the enzyme activity so that it is directly proportional to the number of viable cells in the sample. […] The change in colour intensity is measured by spectrophotometry at 570 nm wavelength. […]
(§2) After reaching 85-90% confluence, the cells were trypsinised using a 0.25% trypsin solution. […] After shaking the plate on the shaker for 2 minutes, the results for 570 nm wavelength were read (reference value of 650 nm). The mean value of absorbance read OD570 of the cells not exposed to a toxic agent (control) should be above 0.7 [see literature item 206].
(§3) A decrease in the number of viable cells causes a decrease in metabolic activity in the sample. This reduction directly correlates with the amount of blue and purple formazan formed, monitored basing on the optical density at 570 nm. […]

[4] = tested on: OVCAR-3; assay: MTT cytotoxicity test, OVCAR-3; details: 24 h
Experimental: as §1, §2, §3

[5] = tested on: A549; assay: MTT cytotoxicity test, A549; details: 24 h
Experimental: as §1, §2, §3

Row | Structure (SMILES) | Average viability ([1]; PANC1, 1.25E+04 ng/ml NPs (pure drug equimolar)) [%] | Average viability ([2]; 2.50E+06 ng/ml NPs (pure drug equimolar)) [%] | Average viability ([2]; 5.00E+03 ng/ml NPs (pure drug equimolar)) [%] | Average viability ([1]; PANC1, 5.00E+04 ng/ml NPs (pure drug equimolar)) [%] | Average viability [3] [%] | Average viability ([4]; OVCAR3, 1.25E+04 ng/ml NPs (pure drug equimolar)) [%] | Average viability ([4]; OVCAR3, 5.00E+03 ng/ml NPs (pure drug equimolar)) [%] | Average viability ([5]; A549, 5.00E+03 ng/ml NPs (pure drug equimolar)) [%] | Average viability ([5]; A549, 5.00E+05 ng/ml NPs (pure drug equimolar)) [%]
1 | COc1cccc2c1C(=O)c1c(O)c3c(c(O)c1C2=O)C[C@@](O)(C(C)=O)C[C@@H]3O[C@H]1C[C@H](N)[C@H](O)[C@H](C)O1 [Dau, daunorubicin] | 93.89 | 62.65 | 62.65 | – | – | – | – | – | –
2 | COc1cccc2c1C(=O)c1c(O)c3c(c(O)c1C2=O)C[C@@](O)(C(=O)CO)C[C@@H]3O[C@H]1C[C@H](N)[C@@H](O)[C@H](C)O1 [Epi, epirubicin] | – | – | – | 89.898 | 1.912 | 102.184 | 104.596 | 103.44 | 62.796

From patent US20210052616A1, “ANTHRACYCLINE ENCAPSULATED WITH A POLYSACCHARIDE FOR USE IN THE TREATMENT OF TUMOURS” (NANOVELOS S.A, priority 2018, published 2021)
